By UniProt entry, the sequences of proteins in these tests, tags left out. Where a name states a change or a piece, a line headed by the entry shows the natural chain unless it says otherwise.
UniProt P35372, whole entry: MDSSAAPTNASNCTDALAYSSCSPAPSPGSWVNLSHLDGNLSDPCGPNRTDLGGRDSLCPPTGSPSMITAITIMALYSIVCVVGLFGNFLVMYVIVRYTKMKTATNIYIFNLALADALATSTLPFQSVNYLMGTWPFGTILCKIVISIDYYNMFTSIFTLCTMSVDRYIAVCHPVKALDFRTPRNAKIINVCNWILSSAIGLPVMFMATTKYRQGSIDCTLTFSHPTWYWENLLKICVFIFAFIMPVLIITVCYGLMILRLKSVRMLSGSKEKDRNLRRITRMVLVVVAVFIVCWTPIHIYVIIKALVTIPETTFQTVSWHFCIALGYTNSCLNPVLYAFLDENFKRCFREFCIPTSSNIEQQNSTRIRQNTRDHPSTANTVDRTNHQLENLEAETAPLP
UniProt P41145, whole entry: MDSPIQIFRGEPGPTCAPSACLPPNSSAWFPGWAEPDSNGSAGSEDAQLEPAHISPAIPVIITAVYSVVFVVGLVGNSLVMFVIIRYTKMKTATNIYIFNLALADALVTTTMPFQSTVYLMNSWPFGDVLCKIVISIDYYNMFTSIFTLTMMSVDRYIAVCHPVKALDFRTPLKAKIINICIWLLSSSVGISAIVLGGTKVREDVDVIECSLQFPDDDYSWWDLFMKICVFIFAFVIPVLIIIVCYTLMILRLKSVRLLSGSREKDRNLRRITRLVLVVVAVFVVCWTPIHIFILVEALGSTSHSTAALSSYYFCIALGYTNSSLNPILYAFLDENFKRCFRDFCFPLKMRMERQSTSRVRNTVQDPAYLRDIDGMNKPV
UniProt P41143, whole entry: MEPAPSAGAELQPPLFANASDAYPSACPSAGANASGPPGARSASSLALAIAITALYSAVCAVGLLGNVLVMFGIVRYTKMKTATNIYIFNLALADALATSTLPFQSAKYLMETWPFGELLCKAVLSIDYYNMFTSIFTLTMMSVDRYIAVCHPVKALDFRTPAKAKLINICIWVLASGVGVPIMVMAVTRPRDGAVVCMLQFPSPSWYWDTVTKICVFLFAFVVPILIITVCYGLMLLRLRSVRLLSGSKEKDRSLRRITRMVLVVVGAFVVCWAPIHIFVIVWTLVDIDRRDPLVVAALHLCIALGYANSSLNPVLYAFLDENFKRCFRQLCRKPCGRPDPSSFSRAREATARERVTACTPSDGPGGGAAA

According to ChEMBL document CHEMBL1148829, “Cinnamoyl derivatives of 7alpha-aminomethyl-6,14-endo-ethanotetrahydrothebaine and 7alpha-aminomethyl-6,14-endo-ethanotetrahydrooripavine and related opioid ligands” (2007):

Assays:
[1] = biological target: Mu-type opioid receptor (Homo sapiens) (UniProt P35372); experiment: Agonist activity at human mu opioid receptor expressed in CHO cells assessed as stimulation of [35S]GTP-gamma-S binding relative to DAMGO
[2] = biological target: Kappa-type opioid receptor (Homo sapiens) (UniProt P41145); experiment: Agonist activity at human kappa opioid receptor expressed in CHO cells assessed as stimulation of [35S]GTPgammaS binding relative to U69593
[3] = biological target: Delta-type opioid receptor (Homo sapiens) (UniProt P41143); experiment: Agonist activity at human delta opioid receptor expressed in CHO cells assessed as stimulation of [35S]GTPgammaS binding relative to DPDPE
[4] = biological target: Mu-type opioid receptor (Homo sapiens) (UniProt P35372); experiment: Antagonist activity at human mu opioid receptor expressed in CHO cells assessed as effect on [35S]GTP-gamma-S binding
[5] = biological target: Opioid receptors; mu & delta (Homo sapiens) (UniProt P41143+P35372); experiment: Selectivity for human mu opioid receptor over human delta opiod receptor
[6] = biological target: Opioid receptors; mu & kappa (Homo sapiens) (UniProt P41145+P35372); experiment: Selectivity for human mu opioid receptor over human kappa opiod receptor
[7] = biological target: Kappa-type opioid receptor (Homo sapiens) (UniProt P41145); experiment: Antagonist activity at human kappa opioid receptor expressed in CHO cells assessed as effect on 35S]GTPgammaS binding

Structure (SMILES) | Activity [1] | Activity [2] | Activity [3] | other results
COc1ccc(/C=C/C(=O)NC[C@H]2C[C@@]34CC[C@@]2(OC)[C@@H]2Oc5c(OC)ccc6c5[C@@]23CCN(C)[C@@H]4C6)cc1 | 27% | 52% |  | 
CO[C@@]12CC[C@@]3(C[C@@H]1CNC/C=C/c1ccc(Cl)cc1)[C@H]1Cc4ccc(O)c5c4[C@@]3(CCN1C)[C@H]2O5 |  | 24% | 39% | 
CO[C@@]12CC[C@@]3(C[C@@H]1CNC(=O)/C=C/c1ccccc1Cl)[C@H]1Cc4ccc(O)c5c4[C@@]3(CCN1C)[C@H]2O5 | 38% | 40% | 60% | 
CO[C@@]12CC[C@@]3(C[C@@H]1CNC(=O)/C=C/c1ccccc1)[C@H]1Cc4ccc(O)c5c4[C@@]3(CCN1C)[C@H]2O5 |  | 26% | 36% | 
CO[C@@]12CC[C@@]3(C[C@@H]1CNC(=O)/C=C/c1ccc(C)cc1)[C@H]1Cc4ccc(O)c5c4[C@@]3(CCN1C)[C@H]2O5 |  | 43% | 51% | Ke [4]: 0.33 nM
COc1ccc2c3c1O[C@H]1[C@]4(OC)CC[C@@]5(C[C@@H]4CNC(=O)/C=C/c4ccc([N+](=O)[O-])cc4)[C@@H](C2)N(C)CC[C@]315 | 24% | 22% | 90% | Ratio Ki [5]: 153; Ratio Ki [6]: 67
CO[C@@]12CC[C@@]3(C[C@@H]1CNC(=O)/C=C/c1ccccc1C)[C@H]1Cc4ccc(O)c5c4[C@@]3(CCN1C)[C@H]2O5 |  |  | 63% | Ke [7]: 4.02 nM
COc1ccc2c3c1O[C@H]1[C@]4(OC)CC[C@@]5(C[C@@H]4CNC(=O)/C=C/c4ccc(Cl)cc4)[C@@H](C2)N(C)CC[C@]315 |  |  |  | Ke [4]: 32.3 nM; Ke [7]: 196 nM
CO[C@@]12C=C[C@@]3([C@@H]4CN(C(=O)/C=C/c5ccccc5C)C[C@@H]41)[C@H]1Cc4ccc(O)c5c4[C@@]3(CCN1C)[C@H]2O5 |  | 88% | 54% | 
CO[C@@]12C=C[C@@]3([C@@H]4CN(C(=O)/C=C/c5ccc(C)cc5)C[C@@H]41)[C@H]1Cc4ccc(O)c5c4[C@@]3(CCN1C)[C@H]2O5 | 48% | 75% | 70% | 
CO[C@@]12CC[C@@]3(C[C@@H]1CNC/C=C/c1ccccc1)[C@H]1Cc4ccc(O)c5c4[C@@]3(CCN1C)[C@H]2O5 |  | 88% | 33% | 
CO[C@@]12CC[C@@]3(C[C@@H]1CNC(=O)/C=C/c1ccc([N+](=O)[O-])cc1)[C@H]1Cc4ccc(O)c5c4[C@@]3(CCN1C)[C@H]2O5 | 32% | 43% | 84% | 
CO[C@@]12CC[C@@]3(C[C@@H]1CNC(=O)/C=C/c1ccc(Cl)cc1)[C@H]1Cc4ccc(O)c5c4[C@@]3(CCN1C)[C@H]2O5 | 25% | 36% | 63% | 
COc1ccc2c3c1O[C@H]1[C@]4(OC)CC[C@@]5(C[C@@H]4CNC(=O)/C=C/c4ccccc4Cl)[C@@H](C2)N(C)CC[C@]315 |  | 84% | 77% | 
COc1ccc2c3c1O[C@H]1[C@]4(OC)CC[C@@]5(C[C@@H]4CNC(=O)/C=C/c4ccccc4C)[C@@H](C2)N(C)CC[C@]315 |  | 80% | 87% | 
COc1ccc2c3c1O[C@H]1[C@]4(OC)CC[C@@]5(C[C@@H]4CNC(=O)/C=C/c4ccc(C)cc4)[C@@H](C2)N(C)CC[C@]315 |  | 27% |  | Ke [4]: 47.4 nM
COc1ccc2c3c1O[C@H]1[C@]4(OC)CC[C@@]5(C[C@@H]4CNC/C=C/c4ccccc4)[C@@H](C2)N(C)CC[C@]315 |  | 79% |  | 
COc1ccccc1/C=C/C(=O)NC[C@H]1C[C@@]23CC[C@@]1(OC)[C@@H]1Oc4c(OC)ccc5c4[C@@]12CCN(C)[C@@H]3C5 |  | 16% | 64% | 
COc1ccc2c3c1O[C@H]1[C@]4(OC)CC[C@@]5(C[C@@H]4CNC/C=C/c4ccc(Cl)cc4)[C@@H](C2)N(C)CC[C@]315 | 34% | 75% |  | 
COc1ccc2c3c1O[C@H]1[C@]4(OC)CC[C@@]5(C[C@@H]4CNC(=O)/C=C/c4ccccc4[N+](=O)[O-])[C@@H](C2)N(C)CC[C@]315 |  | 23% | 58% | 
COc1ccc2c3c1O[C@H]1[C@]4(OC)CC[C@@]5(C[C@@H]4CNC(=O)/C=C/c4ccccc4)[C@@H](C2)N(C)CC[C@]315 | 34% | 51% | 74% | 
